In patent publication US10098888B2, “Substituted benzene compounds” (Epizyme, Inc., priority 2012, dated 2018):

Tested on: CYP1A, CYP2B6, CYP2C9, CYP3A
[1] = human hepatocytes, 1 or 10 μmol/L, 48 hours

Structure (SMILES)	CYP induction (conclusion in words) [1]	CYP induction (conclusion in words)
CCN(c1cc(-c2ccc(OCCOC)cc2)cc(C(=O)NCc2c(C)cc(C)[nH]c2=O)c1C)[C@H]1CC[C@H](N(C)C)CC1 [Compound 1, N-((4,6-dimethyl-2-oxo-1,2-dihydropyridin-3-yl)methyl)-5-(((trans)-4-(dimethytamino)-cyclohexyl)(ethyl)-amino)-4′-(2-methoxyethoxy)-4-methyl-[1,1′-biphenyl]-3-carboxamide]	no significant induction (except potentially CYP2C9)	–
CCN(c1cc(C#CCN2CCOCC2)cc(C(=O)NCc2c(C)cc(C)[nH]c2=O)c1C)[C@H]1CC[C@H](N(C)CCOC)CC1 [Compound 2, N-((4,6-dimethyl-2-oxo-1,2-dihydropyridin-3-yl)methyl)-3-(ethyl((trans)-4-((2-methoxyethyl)(methyl)amino)cyclohexyl)amino)-2-methyl-5-(3-morpholinoprop-1-yn-1-yl)benzamide]	no induction (with slightly lower activity)	–
CCN(c1cc(C#CC2CCN(C)CC2)cc(C(=O)NCc2c(C)cc(C)[nH]c2=O)c1C)C1CCOCC1 [Compound 105, N-((4,6-Dimethyl-2-oxo-1,2-dihydropyridin-3-yl)methyl)-3-(ethyl(tetrahydro-2H-pyran-4-yl)amino)-2-methyl-5-((1-methylpiperidin-4-yl)ethynyl)benzamide]	–	induction of CYP2B6, CYP2C9, and CYP3A

Like-named read-outs stand apart in the source and are kept apart here.
